Test results from patent publication US11780821B2, “Inhibitors of fibroblast activation protein” (Praxis Biotech LLC, priority 2017, dated 2023).

Sequences of proteins named here, by UniProt entry; tags and fusion partners are left off. A change or cut given only in a name is not applied to a line headed by its entry.
UniProt P28843: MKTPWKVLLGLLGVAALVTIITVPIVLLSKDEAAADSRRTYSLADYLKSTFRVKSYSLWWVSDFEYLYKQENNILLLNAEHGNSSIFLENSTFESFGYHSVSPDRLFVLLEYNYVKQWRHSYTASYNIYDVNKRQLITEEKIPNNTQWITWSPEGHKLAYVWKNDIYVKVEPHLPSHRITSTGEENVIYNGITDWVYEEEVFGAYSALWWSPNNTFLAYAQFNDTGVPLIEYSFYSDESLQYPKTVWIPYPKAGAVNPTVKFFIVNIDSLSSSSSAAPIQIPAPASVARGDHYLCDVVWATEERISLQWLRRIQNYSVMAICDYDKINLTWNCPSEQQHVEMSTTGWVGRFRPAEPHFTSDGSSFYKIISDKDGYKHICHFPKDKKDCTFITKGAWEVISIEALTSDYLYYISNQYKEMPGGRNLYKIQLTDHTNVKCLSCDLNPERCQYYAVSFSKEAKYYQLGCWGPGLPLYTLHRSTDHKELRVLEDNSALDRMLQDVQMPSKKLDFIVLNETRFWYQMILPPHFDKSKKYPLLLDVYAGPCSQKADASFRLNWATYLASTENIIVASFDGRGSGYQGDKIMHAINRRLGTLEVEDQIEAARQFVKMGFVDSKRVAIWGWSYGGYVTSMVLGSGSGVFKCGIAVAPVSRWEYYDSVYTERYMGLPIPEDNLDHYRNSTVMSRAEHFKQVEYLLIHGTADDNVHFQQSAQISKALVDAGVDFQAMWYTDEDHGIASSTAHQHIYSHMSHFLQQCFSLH

Biological target: T1, recombinant mouse DPPIV (rmDPPIV) (Mus musculus, UniProt P28843)
T1 construct: purchased R&S system (so in the source)
Assay: DPPIV enzymatic activity assay
Type: biochemical
Method: To assay baseline dipeptidyl peptidase-4 (DPPIV) activity, 40 ng of recombinant human DPPIV (rhDPPIV) (R&S system, #1180-SE) or 40 ng of recombinant mouse DPPIV (rmDPPIV) (R&S system, #954-SE) was incubated with 400 μM of H-Gly-Pro-pNA substrate (BACHEM, #L-1880) in a DPPIV assay buffer (25 mM Tris, pH 8.3) for 30 min at 37° C. protected from the light in 96-well black plates (Nunc, #237108). To assay DPPIV inhibition by test compounds, test compounds were pre-incubated with the enzyme for 15 min at 37° C. before starting the reaction by substrate addition in 96-well black plates (Nunc, #237108). Para-nitroaniline (pNA) release was detected by measuring absorbance at 405 nm using a Multifunction Microplate Reader (Synergy 4, Biotek). All measurements were carried out in triplicate.

With `CC(C)[C@H](N)C(=O)N1CCC[C@H]1B(O)O` [Val-boroPro] the IC50 was < 1000 nM.
